Consider one compound from patent US11691963B2, “6-heteroaryloxy benzimidazoles and azabenzimidazoles as JAK2 inhibitors” (Ajax Therapeutics, Inc., priority 2020, dated 2023).

Amino acid sequences for entries named in this document (tags omitted). Residues count along the entry.
UniProt O60674, 849-1124 Y1007F/Y1008F limits assumed: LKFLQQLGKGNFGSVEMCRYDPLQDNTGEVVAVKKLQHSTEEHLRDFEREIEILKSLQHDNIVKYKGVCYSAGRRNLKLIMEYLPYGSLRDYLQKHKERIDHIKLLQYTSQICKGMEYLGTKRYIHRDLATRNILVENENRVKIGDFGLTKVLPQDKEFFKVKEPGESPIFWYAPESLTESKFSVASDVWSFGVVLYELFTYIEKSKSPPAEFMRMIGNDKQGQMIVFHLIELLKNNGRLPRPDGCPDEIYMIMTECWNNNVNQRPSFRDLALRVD

For the assay, the target named is JAK2 (JH1domain-catalytic, Y1007F,Y1008F) kinase (Homo sapiens (Human), UniProt O60674, Y1007F/Y1008F). The assay is described as follows: JAK2 Binding Assay (JAK2 JH1 Domain Binding Assay). The note with it: read-out: JAK2 Kd, qPCR readout. Here is the method:
JAK2 (JH1domain-catalytic, Y1007F,Y1008F) kinase was expressed as N-terminal fusion to the DNA binding domain of NFkB in transiently transfected HEK293 cells and subsequently tagged with DNA for qPCR detection. Streptavidin-coated magnetic beads were treated with biotinylated small molecule ligands for 30 minutes at room temperature to generate affinity resins for kinase assays. The liganded beads were blocked with excess biotin and washed with blocking buffer (SeaBlock (Pierce), 1% BSA, 0.05% Tween 20, 1 mmol/L DTT) to remove unbound ligand and to reduce nonspecific phage binding. Binding reactions were assembled by combining kinases, liganded affinity beads, and test compounds in 1× binding buffer (1×PBS, 0.05% Tween 20, 0.1% BSA, 1 mmol/L DTT). Test compound was prepared as 111× stocks in 100% DMSO and directly diluted into the assay wells. All reactions were performed in polypropylene 384-well plates in a final volume of 0.02 mL. The assay plates were incubated at room temperature with shaking for 1 hour and the affinity beads were washed with wash buffer (1×PBS, 0.05% Tween 20). The beads were then re-suspended in elution buffer (1×PBS, 0.05% Tween 20, 0.5 μmol/L non-biotinylated affinity ligand) and incubated at room temperature with shaking for 30 minutes. The kinase concentration in the eluate was measured by qPCR.
Background: In qPCR the cycle at which signal appears reflects the starting amount.

One may read the Kd as the equilibrium constant for the complex coming apart. In the case of `CC(=O)Nc1cc(Oc2ccc3nc(Nc4cc(C(C)(C)C)nn4C)n(C)c3c2C)ccn1`, the Kd was in the range of 10 to 50 nM.
